The source of these data is ChEMBL document CHEMBL5728058, “3-(carboxymethyl)-8-amino-2-oxo-1,3-diaza-spiro-[4.5]-decane derivatives” (2020).

By UniProt entry, the sequences of proteins in these tests, tags left out. Where a name states a change or a piece, a line headed by the entry shows the natural chain unless it says otherwise.
UniProt P41146: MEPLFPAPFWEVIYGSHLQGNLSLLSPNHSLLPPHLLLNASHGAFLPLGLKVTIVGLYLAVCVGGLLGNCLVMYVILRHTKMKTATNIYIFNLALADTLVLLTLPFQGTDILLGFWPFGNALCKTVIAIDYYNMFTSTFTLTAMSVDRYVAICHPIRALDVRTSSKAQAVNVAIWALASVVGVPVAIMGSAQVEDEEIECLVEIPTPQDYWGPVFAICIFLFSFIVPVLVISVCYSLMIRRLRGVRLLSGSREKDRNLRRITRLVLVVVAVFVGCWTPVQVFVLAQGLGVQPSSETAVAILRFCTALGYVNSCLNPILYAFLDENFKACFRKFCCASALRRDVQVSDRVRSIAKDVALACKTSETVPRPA
UniProt P35372, whole entry, looked up: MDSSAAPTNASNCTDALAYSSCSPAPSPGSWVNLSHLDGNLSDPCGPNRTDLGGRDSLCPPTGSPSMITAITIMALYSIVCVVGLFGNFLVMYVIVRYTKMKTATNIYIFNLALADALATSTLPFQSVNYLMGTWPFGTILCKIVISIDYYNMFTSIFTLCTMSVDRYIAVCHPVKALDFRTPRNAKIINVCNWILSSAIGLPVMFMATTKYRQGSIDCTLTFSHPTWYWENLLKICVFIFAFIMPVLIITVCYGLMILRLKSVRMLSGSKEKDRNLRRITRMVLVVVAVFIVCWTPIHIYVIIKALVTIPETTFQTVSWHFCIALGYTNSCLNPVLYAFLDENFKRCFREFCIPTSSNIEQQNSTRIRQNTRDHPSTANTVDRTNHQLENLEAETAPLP

The target of one experiment is Nociceptin receptor (Homo sapiens, UniProt P41146). The experiment in a line: Human Nociceptin/Orphanin FQ Peptide (hNOP) Receptor Binding Assay: The hNOP receptor binding assay was performed as homogeneous SPA-assay (scintillation proximity assay) using the assay buffer 50 mM TRIS-HCl, 10 mM MgCl2, 1 mM EDTA (pH 7.4). The final assay volume (250 μl/well) included 0.5 nM of [leucyl-3H]nociceptin as ligand (PerkinElmer Life Sciences, Inc. Boston, Mass., USA), and either test. Background: In a scintillation proximity assay essentially only radioactivity close to the scintillant gives light.

Another experiment has as its target Mu-type opioid receptor (Homo sapiens, UniProt P35372). The experiment in a line: Human Mu-Opioid Peptide (hMOP) Receptor Binding Assay: The hMOP receptor binding assay was performed as homogeneous SPA-assay (scintillation proximity assay) using the assay buffer 50 mM TRIS-HCl (pH 7.4) supplemented with 0.052 mg/ml bovine serum albumin (Sigma-Aldrich Co., St. Louis, Mo.). The final assay volume (250 μl/well) included 1 nM of [N-allyl-2,3-3H]naloxone as ligand (PerkinElmer Life.

Several values for one entry are separate records, joined by “and”; a condition that tells them apart may be missing. Equal values may be shown once.

In the case of `CCCN1C(=O)N(CC(=O)NCC(N)=O)C[C@]12CC[C@](c1ccccc1)(N(C)C)CC2`, the inhibition constant (Ki) at Nociceptin receptor amounted to 43 nM; at Mu-type opioid receptor it was 130 nM.
With `CNC(=O)C(C)(C)NC(=O)CN1C[C@]2(CC[C@@](NC)(c3ccccc3)CC2)N(CC2CCC2)C1=O`, the inhibitory constant (Ki) on Nociceptin receptor was determined as 87.5 nM; at Mu-type opioid receptor it was 180 nM.
Turning to `CNC(=O)CN1C[C@]2(CC[C@](c3ccccc3)(N(C)C)CC2)N(CCOC)C1=O`, the Ki on Nociceptin receptor is 140 nM; on Mu-type opioid receptor, 145 nM.
Turning to `CNC(=O)CN1C[C@]2(CC[C@](c3ccccc3)(N(C)C)CC2)N(CC(=O)N(C)C)C1=O`, the Ki is 170 nM at Nociceptin receptor and 1120 nM on Mu-type opioid receptor.
With `Cc1cc(NC(=O)CN2C[C@]3(CC[C@](c4ccccc4)(N(C)C)CC3)N(CC3CCC3)C2=O)ccn1`, the results for the Ki on Nociceptin receptor and on Mu-type opioid receptor were 3.3 nM and 83 nM, respectively.
In the same order, the values of `CN(C)[C@]1(c2ccccc2)CC[C@@]2(CC1)CN(CC(N)=O)C(=O)N2` are 465 nM and 1810 nM.
In the same order, the values of `CN(CC(N)=O)C(=O)CN1C[C@]2(CC[C@](c3ccccc3)(N(C)C)CC2)N(CC2COC2)C1=O` are 170 nM and 2900 nM.
With `CN(C)[C@]1(c2ccccc2)CC[C@]2(CC1)CN(CC(=O)NCCO)C(=O)N2CC1(O)CCC1`, the results for the Ki at Nociceptin receptor and on Mu-type opioid receptor were 38.5 nM and 120 nM, respectively.
As for `CN(C)[C@]1(c2ccccc2)CC[C@]2(CC1)CN(CC(=O)NC(C)(C)C(N)=O)C(=O)N2CC1CCC1`, the Ki turned out to be 9.1 nM on Nociceptin receptor and 112 nM at Mu-type opioid receptor.
On the same counts, the results for `COCCCN1C(=O)N(CC(=O)NCCO)C[C@]12CC[C@](c1ccccc1)(N(C)C)CC2` are 80 nM and 230 nM.
In the case of `CN(CC(N)=O)C(=O)CN1C[C@]2(CC[C@](c3ccc(F)cc3)(N(C)C)CC2)N(CC2CCC2)C1=O`, the inhibition constant Ki on Nociceptin receptor stood at 15 nM; at Mu-type opioid receptor, 180 nM.
In the same order, the values of `CN(C)[C@]1(c2ccccc2)CC[C@]2(CC1)CN(CC(=O)NCCS(C)(=O)=O)C(=O)N2CC1(O)CCC1` are 14 nM and 57.5 nM.
In the same order, the values of `CN(CC(N)=O)C(=O)CN1C[C@]2(CC[C@@](c3ccccc3)(N(C)C)CC2)N(CC2CCC2)C1=O` are 465 nM and 210 nM.
On the same counts, the results for `CNC(=O)CN1C[C@]2(CC[C@@](c3ccccc3)(N(C)C)CC2)N(CC2CC2)C1=O` are 230 nM and 73.5 nM.
`COCCOCCOCCOCCOCCNC(=O)CN1C[C@]2(CC[C@](c3ccccc3)(N(C)C)CC2)N(CC2CCC2)C1=O`: the values for the Ki at Nociceptin receptor and on Mu-type opioid receptor were 22 nM and 125 nM, respectively.
Regarding `COCCOCCOCCOCCNC(=O)CN1C[C@]2(CC[C@](c3ccccc3)(N(C)C)CC2)N(CC2CCC2)C1=O`, the values for the Ki at Nociceptin receptor and at Mu-type opioid receptor were 13 nM and 270 nM, respectively.
For `CN(C)[C@]1(c2ccccc2)CC[C@@]2(CC1)NC(=O)N(CC(=O)Nc1ccccc1)C2=O`, the Ki is 195 nM on Nociceptin receptor and 1610 nM at Mu-type opioid receptor.
On to `CN(C)[C@]1(c2ccccc2)CC[C@]2(CC1)CN(CC(=O)NC1CCS(=O)(=O)CC1)C(=O)N2CC1(O)CCC1`, for which the Ki was 12.9 nM on Nociceptin receptor and 195 nM on Mu-type opioid receptor.
In the same order, the values of `CCCN1C(=O)N(CC(=O)NC)C[C@]12CC[C@](c1ccccc1)(N(C)C)CC2` are 40 nM and 18.8 nM.
In the same order, the values of `CN[C@]1(c2ccccc2)CC[C@]2(CC1)CN(CC(=O)NCCOCCOCCOCCOCCOCCOCCOC)C(=O)N2CC1CCC1` are 265 nM and 1200 nM.
`CN(C)C(=O)CN1C(=O)N(CC(=O)Nc2ccncn2)C[C@]12CC[C@](c1ccccc1)(N(C)C)CC2`: the values for the Ki at Nociceptin receptor and on Mu-type opioid receptor were 155 nM and 1210 nM, respectively.
In the same order, the values of `COCCNC(=O)CN1C[C@]2(CC[C@](c3ccccc3)(N(C)C)CC2)N(CC2(O)CCC2)C1=O` are 27 nM and 66.5 nM.
Take `CN(CCO)C(=O)CN1C[C@]2(CC[C@](c3ccccc3)(N(C)C)CC2)N(CC2CC2)C1=O`: the values for the Ki on Nociceptin receptor and at Mu-type opioid receptor were 31 nM and 615 nM, respectively.
Regarding `COc1ccnc(NC(=O)CN2C[C@]3(CC[C@](c4ccccc4)(N(C)C)CC3)N(CC3CCC3)C2=O)n1`, the Ki on Nociceptin receptor was 2.5 nM and 6.5 nM; at Mu-type opioid receptor it was 29 nM and 73.5 nM.
For the molecule `CNC(=O)CN(C)C(=O)CN1C[C@]2(CC[C@](c3ccccc3)(N(C)C)CC2)N(CC2CCC2)C1=O`, the inhibition constant (Ki) at Nociceptin receptor was 6.3 nM and 17 nM; on Mu-type opioid receptor, 116 nM and 180 nM.
Turning to `CN[C@]1(c2ccccc2)CC[C@]2(CC1)CN(CC(=O)NC(C)(C)C(N)=O)C(=O)N2CC1CCC1`, the Ki at Nociceptin receptor came out at 68.5 nM; at Mu-type opioid receptor, 160 nM.
With `COCCOCCOCCOCCOCCOCCNC(=O)CN1C[C@]2(CC[C@](c3ccccc3)(N(C)C)CC2)N(CC2CCC2)C1=O`, the inhibitory constant (Ki) was 52.3 nM at Nociceptin receptor and 303 nM on Mu-type opioid receptor.
In the case of `CN(C)[C@]1(c2ccccc2)CC[C@]2(CC1)CN(CC(=O)NCC(C)(C)O)C(=O)N2CC1CCC1`, the Ki at Nociceptin receptor came to 5.2 nM; at Mu-type opioid receptor, 59 nM.
In the same order, the values of `COCCCN1C(=O)N(CC(=O)NCc2ccncn2)C[C@]12CC[C@](c1ccccc1)(N(C)C)CC2` are 59 nM and 45 nM.
On the same counts, the results for `COC(=O)c1cccnc1NC(=O)CN1C[C@]2(CC[C@](c3ccccc3)(N(C)C)CC2)N(CC2CCC2)C1=O` are 7.6 nM and 55 nM.
For the molecule `CNC(=O)CN1C[C@]2(CC[C@@](NC)(c3ccccc3)CC2)N(CC2CCC2)C1=O`, the Ki at Nociceptin receptor was 13.3 nM and 11 nM; at Mu-type opioid receptor, 124 nM and 120 nM.
With `CN(C)[C@]1(c2ccccc2)CC[C@]2(CC1)CN(CC(=O)NCC1(O)CCCCC1)C(=O)N2CC1CCC1`, the Ki at Nociceptin receptor turned out to be 3.7 nM; at Mu-type opioid receptor, 26.5 nM.
For `CN[C@]1(c2ccccc2)CC[C@]2(CC1)CN(CC(=O)NCCOC)C(=O)N2CC1(O)CCC1`, the results for the Ki at Nociceptin receptor and on Mu-type opioid receptor were 280 nM and 400 nM, respectively.
`CN(C)[C@]1(c2ccccc2)CC[C@]2(CC1)CN(CC(N)=O)C(=O)N2CC1CCC1`: the Ki at Nociceptin receptor was 4.4 nM and 2 nM; at Mu-type opioid receptor, 6.2 nM and 24 nM.
As to `CN(C)[C@]1(c2ccccc2)CC[C@]2(CC1)CN(CC(=O)Nc1cc([S+](C)[O-])ccn1)C(=O)N2CC1CCC1` (some centres not stated), the Ki on Nociceptin receptor was 4.9 nM; on Mu-type opioid receptor, 55.5 nM.
On to `CCCN1C(=O)N(CC(=O)N2CCS(=O)(=O)CC2)C[C@]12CC[C@@](NC)(c1ccccc1)CC2`, for which the Ki on Nociceptin receptor worked out at 305 nM; on Mu-type opioid receptor it was 1020 nM.
In the same order, the values of `CN(C)[C@]1(c2ccccc2)CC[C@]2(CC1)CN(CC(=O)N1CCC(C(N)=O)CC1)C(=O)N2CC1(O)CCC1` are 8 nM and 510 nM.
`COc1cc(NC(=O)CN2C[C@]3(CC[C@](c4ccccc4)(N(C)C)CC3)N(CC3CCC3)C2=O)ncn1`: the figures for the Ki at Nociceptin receptor and on Mu-type opioid receptor were 11 nM and 122 nM, respectively.
Regarding `CN(C)[C@]1(c2ccccc2)CC[C@]2(CC1)CN(CC(N)=O)C(=O)N2`, the Ki at Nociceptin receptor worked out at 330 nM; at Mu-type opioid receptor, 6020 nM.
On the same counts, the results for `CN(C)[C@]1(c2ccccc2)CC[C@]2(CC1)CN(CC(=O)Nc1ccncc1)C(=O)N2CC1(O)CCC1` are 13 nM and 130 nM.
In the same order, the values of `CNC(=O)CN(C)C(=O)CN1C[C@]2(CC[C@](c3ccccc3)(N(C)C)CC2)N(CCCOC)C1=O` are 125 nM and 435 nM.
With `COCCN1C(=O)N(CC(=O)Nc2ccncn2)C[C@]12CC[C@](c1ccccc1)(N(C)C)CC2`, the Ki was 110 nM at Nociceptin receptor and 850 nM at Mu-type opioid receptor.
Regarding `COCCCN1C(=O)N(CC(=O)N(C)CC(N)=O)C[C@]12CC[C@](c1ccccc1)(N(C)C)CC2`, the results for the Ki at Nociceptin receptor and at Mu-type opioid receptor were 130 nM and 185 nM, respectively.
Turning to `CNC(=O)CN1C[C@]2(CC[C@](c3ccccc3)(N(C)CC(C)C)CC2)N(CC2CCC2)C1=O`, the values for the Ki at Nociceptin receptor and on Mu-type opioid receptor were 665 nM and 1740 nM, respectively.
In the same order, the values of `COCCN1C(=O)N(CC(=O)NCC(N)=O)C[C@]12CC[C@](c1ccccc1)(N(C)C)CC2` are 124 nM and 480 nM.
In the same order, the values of `CN[C@]1(c2ccccc2)CC[C@]2(CC1)CN(CC(=O)N1C[C@@H](O)[C@@H](O)C1)C(=O)N2CC1CCC1` are 30.5 nM and 119 nM.
On the same counts, the results for `CN(C)[C@]1(c2ccccc2)CC[C@]2(CC1)CN(CC(=O)N1CCC(C)(O)CC1)C(=O)N2CC1CC1` are 13 nM and 255 nM.
As to `CN(C)C(=O)CCNC(=O)CN1C[C@]2(CC[C@](c3ccccc3)(N(C)C)CC2)N(CC2CCC2)C1=O`, the results for the Ki on Nociceptin receptor and on Mu-type opioid receptor were 7.5 nM and 31.5 nM, respectively.
In the same order, the values of `CN(C)C(=O)CN1C(=O)N(CC(=O)NCCO)C[C@]12CC[C@](c1ccccc1)(N(C)C)CC2` are 215 nM and 515 nM.
On the same counts, the results for `CN(C)[C@]1(c2ccccc2)CC[C@]2(CC1)CN(CC(=O)Nc1ccncn1)C(=O)N2CC1(C)CCC1` are 5.7 nM and 63.5 nM.
Regarding `CN(C)[C@]1(c2ccccc2)CC[C@]2(CC1)CN(CC(N)=O)C(=O)N2CC1CC1`, the figures for the Ki at Nociceptin receptor and on Mu-type opioid receptor were 12 nM and 95 nM, respectively.
On the same counts, the results for `COCCCN1C(=O)N(CC(=O)Nc2cc(OC)ccn2)C[C@]12CC[C@](c1ccccc1)(N(C)C)CC2` are 19 nM and 106 nM.
In the same order, the values of `CC(C)CN1C(=O)N(CC(=O)NCC(N)=O)C[C@]12CC[C@](c1ccccc1)(N(C)C)CC2` are 12.5 nM and 144 nM.
Take `COCCCN1C(=O)N(CC(=O)Nc2ccnnc2)C[C@]12CC[C@](c1ccccc1)(N(C)C)CC2`: the Ki at Nociceptin receptor was 43 nM; on Mu-type opioid receptor, 128 nM.
`CCN(C)[C@]1(c2ccccc2)CC[C@]2(CC1)CN(CC(=O)NCCO)C(=O)N2CC1CCC1`: the Ki at Nociceptin receptor was determined as 39 nM; at Mu-type opioid receptor it was 660 nM.
On the same counts, the results for `CN(C)[C@]1(c2ccccc2)CC[C@]2(CC1)CN(CC(=O)NCCC(=O)N1CCOCC1)C(=O)N2CC1CCC1` are 4.6 nM and 170 nM.

The term Ki denotes a dissociation constant, usually derived from enzyme kinetics or from competition with a known ligand. Low readings indicate tighter binding, high ones weaker binding.
